Measured values: publication PMC6149774, “Inhibition by Commercial Aminoglycosides of Human Connexin Hemichannels Expressed in Bacteria” (Molecules : A Journal of Synthetic Chemistry and Natural …, 2017)

Target: T1, human Cx46 hemichannels (Homo sapiens, UniProt Q9Y6H8)
T1 construct: Details of the human Cx26, Cx43, and Cx46 DNAs used to transform LB2003 cells have been published; expressed in transfected cells; host or cells: E. coli LB2003 (with pREP4), IPTG-induced from pQE60
Experiment: Cx46-dependent growth complementation assay in LB2003 cells
Type: cell-based
Details: read-out: Aminoglycoside concentration needed to inhibit growth complementation by 50% (IC50), dependent on Cx46; LB2003-pREP4 cells, NLM + 16 mM KCl, 10 µM IPTG, OD600 after 18 h; mean ± SEM

**Q.** kanamycin A was tested. Which IC50 did it give?
**A.** 112 ± 5 µM
